Assay results taken from patent US7034208B1, “Ahas inhibiting herbicide resistant wheat and method for selection thereof” (BASF Aktiengellschaft, priority 1991, dated 2006).

Experiments:
[1] = tested on: wheat seeds; experiment: Seed soak screen (Example 1, Step 1, Experiments 1-4); assay type: in vivo
Method: The seeds are rinsed in sterile distilled water and then soaked in a herbicide concentration for a set period of time, as described below. Sets of twenty-five seeds are placed into 25 ml of the herbicide solution described below in a sterile 100×15 mm plastic petri dish and soaked for the designated time. The seeds are rinsed with water, dried with paper towels and planted (25 seeds/flat) approximately ½″ deep in 6×8 inch peat flats containing a moist, sterile, artificial soil, Metro Mix 350™ (Grace Company, Cambridge, Mass.). The treatments are evaluated at four weeks after treatment. The herbicides, rates and time periods evaluated are described below:
Each treatment is replicated four times.
Each treatment is replicated two times.
The protocol is as described above except that 35 seeds are soaked per petri dish; 25 seeds are still planted per flat. This experiment is repeated twice.

[2] = tested on: mutant wheat selections FS1-FS4 and Fidel; assay type: in vivo; conditions: postemergence, plant growth four weeks after treatment
From the text: This greenhouse test examines the level and spectrum of herbicide resistance of the mutant selections at the whole plant level. […] These lines are bulked according to their parental lines: FS1, FS2, FS3 and FS4. Fidel (wild-type) is used is a control and for performance comparison purposes. Five seeds from each of these lines (including Fidel) are planted per pot in six inch Azalea pots and are later thinned to three plants per pot. Three replicates are used per treatment (chemical and rate) for each line, and six replicates per wheat line are used as untreated controls. Plants are sprayed postemergence, 10 days after planting, with the following herbicides and rates: […]

Compound: CC(C)C1(C)N=C(c2nc3ccccc3cc2C(=O)O)NC1=O (stereo not drawn) [SCEPTER, 2-(4-isopropyl-4-methyl-5-oxo-2-imidazolin-2-yl)-3-quinolinecarboxylic acid]
- effectiveness as selective agent in seed soak ([1]; 250-1500 uM for 48, 72 or 96 hours): not effective at any of the herbicide/exposure length combinations
- suitability for selection of resistant mutants ([1]; seed soak 1000 or 1500 uM for three days, Experiment 4): suitable for selection of imidazolinone resistant mutants with the problem of false positives minimized
- rate to which the mutant wheat is resistant [2]: more than 640 g/ha
